Chains of the proteins cited; added tags and fusions are not shown. Residues count along the entry.
UniProt P45983, 1-384 isoform P45983-2: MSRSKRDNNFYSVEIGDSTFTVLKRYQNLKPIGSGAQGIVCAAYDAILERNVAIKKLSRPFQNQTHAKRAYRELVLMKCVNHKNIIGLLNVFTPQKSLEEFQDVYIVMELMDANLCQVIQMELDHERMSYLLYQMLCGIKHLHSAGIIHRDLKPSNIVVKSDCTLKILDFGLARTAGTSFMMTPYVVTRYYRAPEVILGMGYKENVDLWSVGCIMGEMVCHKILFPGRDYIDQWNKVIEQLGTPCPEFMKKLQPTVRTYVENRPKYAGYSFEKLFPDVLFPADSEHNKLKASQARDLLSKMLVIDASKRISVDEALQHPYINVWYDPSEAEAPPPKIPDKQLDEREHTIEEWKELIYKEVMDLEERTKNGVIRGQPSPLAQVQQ

In patent US7402595B2, “JNK inhibitor” (Takeda Pharmaceutical Company Limited, priority 2002, dated 2008):

Legend:
Male wistar rats = assay: Pressure overloaded cardiac hypertrophy induced by an abdominal aortic stenosis (rat); assay type: in vivo; conditions: 10 mg/kg p.o. once a day, day 7 after aortic stenosis
Description: Preparation of the Model of Pressure Overloaded Cardiac Hypertrophy Induced by an Abdominal Aortic Stenosis (Rat)
Male wistar rats (body weight 260-300 g, CLEA Japan, Inc) were used. Under xylazine (10 mg/kg, i.p.) and ketamine (50 mg/kg, i.p.) anesthesia, abdominal aorta was exposed by median laparotomy. The left and right renal arteries were detached from the back, a 22G injection needle was put along the artery and it was ligated together with the aorta using a 2-0 silk thread just below the right renal artery. Then, the injection needle was removed to make a stenosis in the abdominal aorta. The abdomen was closed and the rats were housed commonly. For a sham group, the abdomen was closed without ligation (no stenosis) with a silk thread. […] At day 7 after the preparation of aortic stenosis, the body weight was measured, and the heart was removed and then extracted under pentobarbital (50 mg/kg, i.p.) anesthesia. The right and left artium and right ventricle were excised from the heart and the wet weight of the left ventricle was measured. The left ventricle weight to body weight ratio of each rat was calculated and an increase from the average value of the sham group was calculated. Inhibitory rate of each group to a cardiac hypertrophy was calculated based on the control group as 100%.

human JNK1 = molecular target: T1, human JNK1 (Homo sapiens, UniProt P45983); assay: Measurement of JNK inhibitory activity (32P uptake into cJUN by active JNK1); assay type: biochemical; conditions: 2.5 μM ATP, 30° C., 60 min
T1 construct: His6 (Met-Ala-His6, read from primer JNK1-U) (N); made in house; host or cells: Sf-21 insect cells (baculovirus BAC-HJNK1 co-infected with BAC-caMKK7); cJUN substrate from E. coli JM109
Description: (4) Preparation of Active JNK1
Sf-21 cells were seeded to achieve 1×10^6 cells/ml in 100 ml of Sf-900 II SFM medium (GIBCO BRL) containing 10% fetal calf serum and cultured at 27° C. for 24 hrs. The recombinant baculovirus virus stock BAC-HJNK1 and BAC-caMKK7 were added by 0.2 ml each, and the cells were further cultured for 60 hrs. The cells were separated from the culture solution by centrifugation (3000 rpm, 10 min.) and washed twice with PBS. The cells were suspended in 10 ml of Lysis buffer (25 mM HEPES (pH 7.5), 1% Triton X, 130 mM NaCl, 1 mM EDTA, 1 mM DTT, 25 mM β-glycerophosphate, 20 μM leupeptin, 1 mM APMSF, 1 mM sodium orthovanadate) and ruptured by 4 times of treatment with a homogenizer (POLYTRON) at 20000 rpm, 30 seconds each. Active JNK1 was purified from a supernatant obtained by centrifugal separation (40000 rpm, 45 min.) by the use of Anti-FLAG M2 Affinity Gel (Sigma).
(5) Preparation of Recombinant cJUN
Escherichia coli JM109 (Toyobo Co., Ltd.) was transformed with a plasmid pGEJUN to give ampicillin resistant pGEJUN/JM109. […]
A reaction solution (37.5 μl, 25 mM HEPES (pH 7.5), 10 mM magnesium acetate, 1 mM DTT) containing 50 ng of active JNK1 and 1 μg of cJUN was dissolved in DMSO. […] After drying at 45° C. for 60 min., 40 μl of Microscint 0 (Packard Japan) was added and the radioactivity was measured on TopCount (Packard Japan).

IC50 (human JNK1): 30 nM
Structure (SMILES): COC(=O)c1c(-c2ccccc2)c2cc(Br)ccc2c(=O)n1Cc1ccc(S(C)(=O)=O)cc1 [Example 94, 6-bromo-2-(4-methanesulfonylbenzyl)-1-oxo-4-phenyl-1,2-dihydroisoquinoline-3-carboxylic acid methyl ester]
Left ventricular weight/body weight ratio (mg/g) amount of increase from sham group (Male wistar rats): 0.31 ± 0.06 (Inhibitory mg/g
Left ventricular weight/body weight ratio (mg/g) value (Male wistar rats): 2.21 ± 0.06 mg/g
